Apparent affinities of Ab-14 variants for a coronavirus HR2 peptide

Reference: Engelhart et al. 2022, doi:10.1038/s41597-022-01779-4. File: FLAb, binding data.

Binding partner: SARS-CoV-2 spike HR2 peptide, sequence PDVDLGDISGINAS.

Each scFv is VH, the linker GGGGSGGGGSGGGGS, VL, as in the parent Ab-14, and differs from it in the CDRs of the light chain only.
VH: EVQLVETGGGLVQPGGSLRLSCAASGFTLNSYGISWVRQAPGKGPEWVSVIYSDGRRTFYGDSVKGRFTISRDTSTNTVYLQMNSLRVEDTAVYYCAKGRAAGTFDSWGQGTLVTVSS
VL: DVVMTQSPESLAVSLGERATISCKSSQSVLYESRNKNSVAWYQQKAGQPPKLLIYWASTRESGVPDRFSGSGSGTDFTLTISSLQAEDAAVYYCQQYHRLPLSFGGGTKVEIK

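The starting antibody came from a phage panning campaign against this peptide. Library AAYL50 holds single substitutions and randomly drawn double and triple substitutions in the CDRs. The assay is AlphaSeq: two haploid yeast populations carry antibody and antigen on their surface. Pairs that bind mate more often; barcode pairs of the diploids are counted by sequencing. Each replicate has its own calibration line, from reference interactions of the BCL2 family. There are three technical replicates.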

Changes read parent residue, position, new residue, counted from the first residue of the VL shown.
The read-out is the apparent dissociation constant on a log10 scale (nM): the lower, the stronger.
An entry "nd" has no value in the source: the pair was not observed among the diploids in that replicate. This suggests poor binding but is not conclusive.
Nonspecific signal, from three strains lacking the peptide, appeared in 18% of pairings of library AAYL50, centred on 4.19 (5% of these signals below 2.99); values are not corrected for it. The control count says in how many pairings with the empty strains this scFv gave a signal, with their mean in brackets.

| changes | replicates, log10 nM | signal with controls |
|---|---|---|
| Q27W+S28P+W56I | 4.16 / 3.81 / 4.98 | 5 of 9 (4.50) |
| N35V+H98L+L100K | nd / nd / 5.48 | 3 of 9 (3.72) |
| S58H+R60G+R99G | nd / nd / nd | 2 of 9 (3.44) |
| K24H+R34M+H98E | 0.99 / 1.06 / 1.02 | 2 of 9 (5.25) |
| S28R+N37Y+H98F | 1.86 / 1.82 / 1.52 | 1 of 9 (4.36) |
| K24L+N35V+E61I | 4.01 / 3.87 / nd | 2 of 9 (3.94) |
| S28A+A40M+T59M | nd / nd / nd | 0 of 9 |
| N35S+A57W | nd / nd / nd | 2 of 9 (3.35) |
| S28R+S33I+R99Y | nd / 2.53 / nd | 0 of 9 |
| K24N+N35G+L102K | 4.18 / 4.96 / nd | 6 of 9 (4.36) |
| S28Q | 1.01 / 1.11 / 0.97 | 3 of 9 (4.09) |
| K24C+Q95Y+L102H | 3.14 / 2.50 / 3.23 | 2 of 9 (4.09) |
| E32R+N37P+W56F | nd / nd / 5.03 | 1 of 9 (2.94) |
| S25Y+V39K+L100Q | nd / nd / nd | 0 of 9 |
| N37H+T59H | nd / nd / nd | 0 of 9 |
| Q27K+A57V+E61F | 1.79 / 1.73 / 2.80 | 0 of 9 |
| N35A+W56A+Y97Q | -0.47 / 0.10 / -0.46 | 0 of 9 |
| Y31M+S33Q | 0.43 / 0.52 / 0.48 | 0 of 9 |
| K24V+W56Y+P101S | nd / nd / nd | 0 of 9 |
| Q96M+R99L | nd / 4.01 / nd | 3 of 9 (4.42) |
| N37Q+A57M+L100C | nd / nd / nd | 0 of 9 |
| S25L+V39M+Q96R | nd / nd / nd | 1 of 9 (4.49) |
| K36E+W56E+S103F | -0.22 / 0.21 / -0.10 | 6 of 9 (4.39) |
| L30H+R34T+T59L | 0.40 / 0.69 / 0.68 | 0 of 9 |
| K36A+E61I+S103G | 4.01 / 3.47 / 3.94 | 4 of 9 (4.35) |
| S26Q+Y31R+S38F | nd / nd / nd | 6 of 9 (4.69) |
| S26C+L30S+V39P | nd / nd / nd | 0 of 9 |
| V29T+Y31V+R99H | 0.77 / 1.07 / 0.84 | 1 of 9 (3.79) |
| E32T+S38R+R99F | nd / nd / nd | 3 of 9 (4.59) |
| V29M+L30M+Y31T | 0.63 / 0.65 / 0.64 | 1 of 9 (5.02) |
| S26A+L30W+P101T | 2.63 / 2.58 / nd | 1 of 9 (2.19) |
| S28E+A40F+S62I | nd / nd / nd | 0 of 9 |
| Q27R+V29K+R99S | 1.59 / 1.35 / 1.91 | 0 of 9 |
| W56Y+P101K | 0.66 / 1.26 / 0.75 | 1 of 9 (3.31) |
| W56G+T59G+R60D | nd / nd / nd | 0 of 9 |
| E32R+N35T+Q96E | 3.43 / 2.48 / 2.79 | 3 of 9 (4.54) |
| R34I+Y97T | 0.78 / 1.02 / 0.93 | 1 of 9 (4.49) |
| Y31P+L100N | nd / nd / nd | 0 of 9 |
| L30C+Y31G+S103H | 0.97 / 1.51 / 1.39 | 0 of 9 |
| L30A+E32G+S33L | 0.71 / 0.84 / 0.80 | 4 of 9 (4.00) |
| N37Q+T59K+H98M | 0.94 / 1.06 / 1.16 | 2 of 9 (5.17) |
| R60L+Q95K+H98P | 1.47 / 1.47 / 1.99 | 0 of 9 |
| L30V+S58F | 2.51 / 2.95 / 2.06 | 3 of 9 (4.23) |
| S25A+A40H+S62N | nd / nd / nd | 1 of 9 (3.06) |
| S25F+S58G | 2.34 / 2.33 / 2.52 | 2 of 9 (3.12) |
| S28I+V29K+K36T | 0.72 / 0.98 / 1.11 | 0 of 9 |
| N37F+H98Q | 0.97 / 1.18 / 1.03 | 0 of 9 |
| S28V+S62W+H98N | 1.95 / 2.20 / nd | 0 of 9 |
| K24S+S28L+S33A | 1.05 / 1.27 / 1.29 | 2 of 9 (3.80) |
| W56P+A57I+L102E | nd / nd / nd | 5 of 9 (4.13) |

For reference, 8 entries of the list once more:

{"changes": "N35S+A57W", "replicates, log10 nM": "nd / nd / nd", "signal with controls": "2 of 9 (3.35)"}
{"changes": "K24C+Q95Y+L102H", "replicates, log10 nM": "3.14 / 2.50 / 3.23", "signal with controls": "2 of 9 (4.09)"}
{"changes": "E32R+N37P+W56F", "replicates, log10 nM": "nd / nd / 5.03", "signal with controls": "1 of 9 (2.94)"}
{"changes": "S28E+A40F+S62I", "replicates, log10 nM": "nd / nd / nd", "signal with controls": "0 of 9"}
{"changes": "S26Q+Y31R+S38F", "replicates, log10 nM": "nd / nd / nd", "signal with controls": "6 of 9 (4.69)"}
{"changes": "S28I+V29K+K36T", "replicates, log10 nM": "0.72 / 0.98 / 1.11", "signal with controls": "0 of 9"}
{"changes": "S28R+S33I+R99Y", "replicates, log10 nM": "nd / 2.53 / nd", "signal with controls": "0 of 9"}
{"changes": "S25A+A40H+S62N", "replicates, log10 nM": "nd / nd / nd", "signal with controls": "1 of 9 (3.06)"}

Parent in this assay: reference entry 0.65, copy in this library 1.68.